Where two headings read alike, the source gives them in different places. Marks after values point to notes of the source that are not given here.
Format: in vivo, human
[1] = +BI 425809 25 mg at steady state
[2] = probe drug + steady-state BI 425809 25 mg vs probe drug only
[3] = probe drug alone (cocktail or digoxin alone)

Compound	t1/2, arithmetic mean (SD) [1]	AUC0–tz, Adjusted gMean Ratio (90% CI) [2]	Cmax, Adjusted gMean Ratio (90% CI) [2]	t1/2, arithmetic mean (SD) [3]	Cmax, arithmetic mean (SD) [1]	Cmax, arithmetic mean (SD) [3]	Cmax, gMean (Probe Drug Only, healthy males, plasma) [ng/mL]
COc1ccc2[nH]c([S+]([O-])Cc3ncc(C)c(OC)c3C)nc2c1 (stereo not drawn) [Omeprazole, omeprazole]	1.0 (0.6) h	88.9 (81.0–97.6) %	102.2 (93.6–111.7) %	1.0 (0.7) h	–	–	–
CC(=O)C[C@H](c1ccccc1)c1c(O)c2ccccc2oc1=O [R-warfarin]	–	–	–	–	558.0 (166.0) ng/mL	537.0 (121.0)* ng/mL	–
CC(=O)C[C@@H](c1ccccc1)c1c(O)c2ccccc2oc1=O [S-warfarin]	–	–	–	–	572.0 (174.0) ng/mL	547.0 (126.0)* ng/mL	534.5
